# In ChEMBL document CHEMBL1140447, “Synthesis and antimuscarinic properties of quinuclidin-3-yl 1,2,3,4-tetrahydroisoquinoline-2-carboxylate derivatives as novel muscarinic receptor antagonists” (J Med Chem, 2005):
# Sequences of proteins named here, by UniProt entry; tags and fusion partners are left off.
# UniProt P08483, whole entry, looked up: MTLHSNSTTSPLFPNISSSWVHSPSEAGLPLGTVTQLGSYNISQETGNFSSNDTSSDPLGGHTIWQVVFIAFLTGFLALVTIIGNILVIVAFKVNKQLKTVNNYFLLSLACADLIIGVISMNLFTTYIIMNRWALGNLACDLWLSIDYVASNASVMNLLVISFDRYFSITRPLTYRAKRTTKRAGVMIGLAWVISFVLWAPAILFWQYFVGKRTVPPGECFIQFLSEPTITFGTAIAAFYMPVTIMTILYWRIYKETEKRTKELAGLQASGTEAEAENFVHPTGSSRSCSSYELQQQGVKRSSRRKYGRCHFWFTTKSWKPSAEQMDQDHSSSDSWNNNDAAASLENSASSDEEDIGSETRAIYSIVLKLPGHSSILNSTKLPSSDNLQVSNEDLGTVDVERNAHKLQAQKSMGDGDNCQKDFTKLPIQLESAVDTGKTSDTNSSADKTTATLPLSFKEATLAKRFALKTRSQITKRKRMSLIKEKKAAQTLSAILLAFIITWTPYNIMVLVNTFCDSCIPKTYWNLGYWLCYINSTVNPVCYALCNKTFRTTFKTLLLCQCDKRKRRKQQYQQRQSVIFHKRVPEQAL
# UniProt P10980, whole entry, looked up: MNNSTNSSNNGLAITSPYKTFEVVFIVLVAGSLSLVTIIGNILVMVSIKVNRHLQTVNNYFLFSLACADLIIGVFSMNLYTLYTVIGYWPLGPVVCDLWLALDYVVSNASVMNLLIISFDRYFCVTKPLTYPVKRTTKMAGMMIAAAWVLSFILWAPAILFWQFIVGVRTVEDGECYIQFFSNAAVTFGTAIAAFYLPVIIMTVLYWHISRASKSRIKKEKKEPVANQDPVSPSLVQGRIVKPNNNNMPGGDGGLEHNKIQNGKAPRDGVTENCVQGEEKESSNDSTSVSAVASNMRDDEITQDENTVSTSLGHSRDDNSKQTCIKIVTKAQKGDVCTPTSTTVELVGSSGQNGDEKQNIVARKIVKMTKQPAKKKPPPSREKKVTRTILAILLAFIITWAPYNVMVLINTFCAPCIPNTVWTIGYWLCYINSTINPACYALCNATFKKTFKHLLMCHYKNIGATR
# Biological target: Muscarinic receptor M2 and M3 (Rattus norvegicus) (UniProt P08483+P10980)
# Assay: Selectivity index as binding affinity for M2 and M3 receptors
# Format: protein assay
structure (smiles),measurement,value
O=C(O[C@H]1CN2CCC1CC2)C1CCc2ccccc2N1c1ccccc1 (stereo partly specified),Selectivity index,5.4
